Values quoted from earlier work as cited in article PMC10779255, “Novel Hydroxamic Acids Containing Aryl-Substituted 1,2,4- or 1,3,4-Oxadiazole Backbones and an Investigation of Their Antibiotic Potentiation Activity” (International Journal of Molecular Sciences, 2023).

System: P. aeruginosa
Conditions: cited from earlier work

CCCc1cc(C2=N[C@@H](C(=O)NO)CO2)cc(OC)c1OC [L-161,240]
effect on growth and in vitro activity of P. aeruginosa: no effect
